Experimental data taken from patent US8895544B2, “Indazoles” (Pfizer Limited, priority 2011, dated 2014).

Sequences of proteins named here, by UniProt entry; tags and fusion partners are left off. A change or cut given only in a name is not applied to a line headed by its entry.
UniProt P52333: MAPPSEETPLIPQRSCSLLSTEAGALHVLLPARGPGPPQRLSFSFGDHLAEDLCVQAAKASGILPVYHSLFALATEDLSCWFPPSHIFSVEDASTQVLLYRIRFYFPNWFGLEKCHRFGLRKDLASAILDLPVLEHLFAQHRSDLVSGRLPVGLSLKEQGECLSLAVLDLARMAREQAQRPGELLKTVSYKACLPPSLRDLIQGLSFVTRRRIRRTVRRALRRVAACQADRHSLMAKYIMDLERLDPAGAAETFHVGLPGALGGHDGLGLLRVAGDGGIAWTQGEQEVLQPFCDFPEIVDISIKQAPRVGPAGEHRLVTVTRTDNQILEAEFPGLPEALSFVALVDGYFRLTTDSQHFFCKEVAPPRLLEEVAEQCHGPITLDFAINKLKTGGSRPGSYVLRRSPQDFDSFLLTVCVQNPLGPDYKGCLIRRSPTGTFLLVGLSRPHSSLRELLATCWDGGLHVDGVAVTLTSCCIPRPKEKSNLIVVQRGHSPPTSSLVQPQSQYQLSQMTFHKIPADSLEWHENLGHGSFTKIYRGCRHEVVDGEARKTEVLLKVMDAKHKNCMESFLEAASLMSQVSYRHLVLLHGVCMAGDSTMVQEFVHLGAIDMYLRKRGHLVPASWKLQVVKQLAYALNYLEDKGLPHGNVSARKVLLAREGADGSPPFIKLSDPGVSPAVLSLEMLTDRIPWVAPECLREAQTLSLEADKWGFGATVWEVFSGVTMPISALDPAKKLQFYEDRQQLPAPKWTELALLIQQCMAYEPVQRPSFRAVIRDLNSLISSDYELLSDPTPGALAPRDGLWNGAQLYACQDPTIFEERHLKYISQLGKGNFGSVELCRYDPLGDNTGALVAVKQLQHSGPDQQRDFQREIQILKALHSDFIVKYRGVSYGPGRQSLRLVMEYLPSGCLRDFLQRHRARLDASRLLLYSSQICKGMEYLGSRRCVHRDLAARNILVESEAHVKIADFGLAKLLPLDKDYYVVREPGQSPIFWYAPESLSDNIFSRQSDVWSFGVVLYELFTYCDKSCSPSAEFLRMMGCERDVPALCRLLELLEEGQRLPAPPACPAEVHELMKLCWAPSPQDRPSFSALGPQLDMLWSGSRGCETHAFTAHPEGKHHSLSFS

Biological target: JAK3 enzyme (Homo sapiens (Human), UniProt P52333)
Assay: JAK3 isolated enzyme high ATP Caliper endpoint assay
Type: biochemical
Conditions: 400 μM ATP, read-out: JAK-3 IC50

How did the IC50 turn out when “{2-[6-(2-Ethyl-5-fluoro-4-hydroxy-phenyl)-1H-indazol-3-yl]-1,4,6,7-tetrahydro-imidazo[4,5-c]pyridin-5-yl}-isothiazol-3-yl-methanone [Example 3]” was run?
Its IC50 is 1 nM.
